Test results from article PMC4136963, “Structure-Based Design and Synthesis of Antiparasitic Pyrrolopyrimidines Targeting Pteridine Reductase 1” (Journal of Medicinal Chemistry, 2014).

Biological target: T1, TbPTR1 (Trypanosoma brucei brucei, UniProt O76290)
T1 sequence (O76290 1-268): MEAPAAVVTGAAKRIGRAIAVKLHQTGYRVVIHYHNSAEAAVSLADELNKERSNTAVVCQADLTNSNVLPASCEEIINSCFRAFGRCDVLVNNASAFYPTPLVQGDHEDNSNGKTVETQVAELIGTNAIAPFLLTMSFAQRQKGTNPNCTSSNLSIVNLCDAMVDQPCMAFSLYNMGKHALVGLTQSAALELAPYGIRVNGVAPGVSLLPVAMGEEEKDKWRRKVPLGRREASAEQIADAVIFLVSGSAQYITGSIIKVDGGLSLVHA
Experiment: not given
Conditions: apparent Ki, competitive inhibition assumed; Insol = insoluble

Question: For `Cc1ccc(C(C[N+](=O)[O-])c2c(N)nc(N)nc2N)cc1` (stereo not shown) [28a], which “TbPTR1 (Ki^app μM)” value is on record?
Answer: The value was “Insol”.

Question: How did the “TbPTR1 (Ki^app μM)” value turn out when `Nc1nc(N)c(C(C[N+](=O)[O-])c2ccccc2)c(N)n1` (stereo not shown) [28c, 5-(2-Nitro-1-phenylethyl)-2,4,6-pyrimidinetriamine] was run?
Answer: Its value is “Insol”.

Question: How did the “TbPTR1 (Ki^app μM)” value turn out when `CC(C)Oc1nc(N)nc(N)c1C(C[N+](=O)[O-])c1ccc(F)cc1` (stereo not shown) [30c, 5-[1-(4-Fluorophenyl)-2-nitroethyl]-6-isopropyloxy-2,4-pyrimidinediamine] was run?
Answer: Its value is “Insol”.

Question: With `CC(C)Oc1nc(N)nc2[nH]cc(-c3ccc(F)cc3)c12` [31c, 5-(4-Fluorophenyl)-4-isopropyloxy-7H-pyrrolo[2,3-d]pyrimidin-2-amine] as the compound, how does the “TbPTR1 (Ki^app μM)” value read?
Answer: Its value is “Insol”.

Question: With `COc1ccc(-c2c(-c3ccc(F)cc3)[nH]c3nc(N)[nH]c(=O)c23)cc1` [34f] as the compound, how does the “TbPTR1 (Ki^app μM)” value read?
Answer: The value was “Insol”.

Question: How did the “TbPTR1 (Ki^app μM)” value turn out when `CS(=O)(=O)c1ccc(-c2[nH]c3nc(N)[nH]c(=O)c3c2-c2ccccc2)cc1` [34k] was run?
Answer: The value was “Insol”.

Question: `Nc1nc(N)c2c(-c3ccc(Cl)cc3)c(-c3ccc(Cl)cc3)[nH]c2n1` [35d] was tested. Which “TbPTR1 (Ki^app μM)” value did it give?
Answer: Its value is “Insol”.

Question: With `Cc1ccc(-c2[nH]c3nc(N)nc(N)c3c2-c2ccc(C)cc2)cc1` [35f] as the compound, how does the “TbPTR1 (Ki^app μM)” value read?
Answer: Its value is “Insol”.

Question: With `CN(C)c1nc(N)nc2[nH]c(-c3ccc(F)cc3)c(-c3ccc(F)cc3)c12` [36a] as the compound, how does the “TbPTR1 (Ki^app μM)” value read?
Answer: Its value is “Insol”.

Question: How did the “TbPTR1 (Ki^app μM)” value turn out when `CN(C)c1nc(N)nc2[nH]c(-c3ccc(Cl)cc3)c(-c3ccc(Cl)cc3)c12` [36b] was run?
Answer: The value was “Insol”.

Question: How did the “TbPTR1 (Ki^app μM)” value turn out when `CN(C)c1nc(N)nc2[nH]c(-c3ccc(F)cc3)c(-c3ccccc3)c12` [36c] was run?
Answer: The value was “Insol”.

Question: `N#Cc1c[nH]c2nc(N)nc(N3CCCC3)c12` [compound 13, 2-Amino-4-(1-pyrrolidinyl)-7H-pyrrolo[2,3-d]pyrimidine-5-carbonitrile] was tested. Which “TbPTR1 (Ki^app μM)” value did it give?
Answer: The value was “Insol”.

Biological target: T1, TbPTR1
Experiment: biochemical
Conditions: not given

Question: With `COc1nc(N)nc2[nH]cc(C#N)c12` [12a] as the compound, how does the Ki read?
Answer: Its Ki is roughly 75 µM.

Question: Which Ki does the source give for `Cc1ccc(C(C[N+](=O)[O-])c2c(N)nc(N)[nH]c2=O)cc1` (stereo not shown) [26a] here?
Answer: The Ki was greater than 100 µM.

Question: `Nc1nc(N)c(C(C[N+](=O)[O-])c2ccc(F)cc2)c(=O)[nH]1` (stereo not shown) [26b] was tested. Which Ki did it give?
Answer: Its Ki is greater than 100 µM.

Question: With `Nc1nc(N)c(C(C[N+](=O)[O-])c2ccccc2)c(=O)[nH]1` (stereo not shown) [26c, 2,6-diamino-5-(2-nitro-1-phenylethyl)-4(3H)-pyrimidinone] as the compound, how does the Ki read?
Answer: The Ki was greater than 100 µM.

Question: Which Ki does the source give for `Nc1nc(N)c(C(CCc2ccccc2)C[N+](=O)[O-])c(=O)[nH]1` (stereo not shown) [26d] here?
Answer: The Ki was greater than 100 µM.

Question: `Nc1nc(N)c(C(C[N+](=O)[O-])c2ccc(F)cc2)c(N)n1` (stereo not shown) [28b] was tested. Which Ki did it give?
Answer: The Ki was roughly 50 µM.

Question: How did the Ki turn out when `Nc1nc(N)c(C(CCc2ccccc2)C[N+](=O)[O-])c(N)n1` (stereo not shown) [28d] was run?
Answer: Its Ki is greater than 100 µM.

Question: How did the Ki turn out when `CC(C)COc1nc(N)nc(N)c1C(C[N+](=O)[O-])c1ccc(F)cc1` (stereo not shown) [30a] was run?
Answer: The Ki was greater than 100 µM.

Question: Which Ki does the source give for `Nc1nc(N)c(C(C[N+](=O)[O-])c2ccc(F)cc2)c(NC2CCCCC2)n1` (stereo not shown) [30b] here?
Answer: The Ki was greater than 100 µM.

Question: For `Nc1nc2[nH]c(-c3ccc(CCCN4CCOCC4)cc3)c(-c3ccccc3)c2c(=O)[nH]1` [compound 38, 2-Amino-6-{4-[3-(4-morpholinyl)propyl]phenyl}-5-phenyl-3,7-dihydro-4H-pyrrolo[2,3-d]pyrimidin-4-one trifluoroacetate], which Ki is on record?
Answer: Its Ki is greater than 10 µM.

Structures can show the parent of a compound that is named as a salt.
